Measured affinities in a library of Ab-14 light chain variants

The target is the same throughout: PDVDLGDISGINAS, from the HR2 region of SARS-CoV-2 spike.

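The starting antibody came from a phage panning campaign against this peptide. In library AAYL50, one, two or three CDR residues were substituted; doubles and triples were drawn at random. The scFvs were displayed on barcoded MATa yeast, the peptide on MATalpha yeast. Pairs that bind mate more often; barcode pairs of the diploids are counted by sequencing. Scores were corrected for input abundance and mapped to Kd with protein pairs of known affinity run in the same pool. Each pool was mated in three replicate cultures.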

Parent: Ab-14, a human scFv built as VH, a 15-residue (Gly4Ser)3 linker, VL. Only the CDRs of the light chain vary.
VH: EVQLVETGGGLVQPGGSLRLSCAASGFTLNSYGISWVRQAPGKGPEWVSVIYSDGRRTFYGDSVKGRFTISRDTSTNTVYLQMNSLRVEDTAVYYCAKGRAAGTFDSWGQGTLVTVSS
VL: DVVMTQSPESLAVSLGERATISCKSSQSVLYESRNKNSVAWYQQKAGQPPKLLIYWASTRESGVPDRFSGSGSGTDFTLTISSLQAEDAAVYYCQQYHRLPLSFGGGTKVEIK

The parent's light chain CDRs are KSSQSVLYESRNKNSVA, WASTRES, QQYHRLPLS; each variant's own CDRs replace them letter for letter.
Every variant below is changed at N37 of the VL (sequential numbering).
Affinities are written as log10 Kd with Kd in nM; a lower number is a better binder.
Replicates are averaged; those with no signal do not enter the mean.
Where no diploid with the target was found in any replicate, the entry reads "nd": below detection, most likely a poor binder, though not proof of it.
Three control strains display no target. For library AAYL50, 18% of the pairings with them gave a signal, with a median of 4.19 and one signal in twenty below 2.99, so weak values seen in few replicates may be background.

CDR-L1	CDR-L2	CDR-L3	log10 Kd (nM), mean	replicates with signal
KSSQSVLYESRNKYWVA	WASTRES	QQYLRLPLS	nd	0 of 3
KSDQSVLYEWRNKWSVA	WASTRES	QQYHRLPLS	2.56	3 of 3
KSSQSVLYESRNKASVA	WASTRES	QQWHRLPLS	3.45	1 of 3
KSSMSVLYESRNKVSVA	WASTRER	QQYHRLPLS	3.21	2 of 3
KSSFSVLYESRNKESVA	WASTRES	QQYHRLPLS	2.19	3 of 3
KNSQSVLYESRNKLSVA	WASTRES	QQAHRLPLS	3.97	1 of 3
KSSQSPLYESRNKVSVA	WASTRFS	QQYHRLPLS	nd	0 of 3
KSSQSVLKESRNKLSVF	WASTRES	QQYHRLPLS	3.90	1 of 3
KSSPSVLYESRNKYSVA	WASTRES	QQYHRLPLS	1.10	3 of 3
KSSQSVLYESRNKYSVA	WASTRES	MQYHRLPLS	0.65	3 of 3
KSSQSVLYESRFKSSVA	WASTRES	QLYHRLPLS	5.00	2 of 3
KSSQSVLYKSRNKASVA	WASTRES	QQYHRLPHS	2.42	3 of 3
TSSASVLYESRNKESVA	WASTRES	QQYHRLPLS	2.57	3 of 3
KSSQSVLQESRNKGSVA	WASTRES	QQWHRLPLS	4.02	1 of 3
KSSQSVLYESRNKSSVA	WASTQES	QQYHRLTLS	3.34	3 of 3
HSSQSVLYESRNKRRVA	WASTRES	QQYHRLPLS	3.67	1 of 3
KSSQSVLYESRNKSSVA	WASTRES	QQEHRLPIS	4.05	2 of 3
KSSQSVWYESRNKTSVA	WASTRES	QQYHRLPLS	1.56	3 of 3
KSSQSVLYESRNKSSEA	WASTRES	QQYHRLPLS	4.27	1 of 3
KSSQDVPYESRNKMSVA	WASTRES	QQYHRLPLS	1.48	3 of 3
KSIQSVLYESRNKESVA	WASTRES	QQYARLPLS	nd	0 of 3
KSSQSVLYESRNHYSVA	WAETRES	QQYHRLPLS	1.72	3 of 3
KSSQSVLYESRNKMSVA	WASTREG	QQYHVLPLS	nd	0 of 3
KSSQSVLYESRNKDSRA	WASTRES	QQYHRLPTS	4.05	1 of 3
KSSQSVLYESRNKHSVA	WASTRES	QQYHRLPLS	1.43	3 of 3
KSSQSVLYESRNKWSVA	WASTRES	QQYHRMPLS	1.19	3 of 3
KSQQSMLYESRNKCSVA	WASTRES	QQYHRLPLS	nd	0 of 3
KSSQSVLGESWNKKSVA	WASTRES	QQYHRLPLS	1.04	3 of 3
KSIQSVLYESRNKWSVA	WASTRES	QQYHRLPLS	2.23	3 of 3
KSSQSVLYESRNIDSMA	WASTRES	QQYHRLPLS	1.58	3 of 3
KSSQSVLYESRNKDSVA	WASTRES	QQYHRLHLS	3.39	3 of 3
KSSQSVLYESRNKLSVI	WASTRES	QQYHRLPLS	nd	0 of 3
KSSQSVRYESRNKESVA	WASTGES	QQYHRLPLS	nd	0 of 3
KSSQSVLYESRNKPSVA	WASTRES	AQYHRLPES	nd	0 of 3
GSSQSVLYESRNKWSVA	WASTRES	QQYHELPLS	2.64	3 of 3
KSSQPVLYESRNKRSVA	WASTRES	QQIHRLPLS	3.77	1 of 3
KSSQSVLYESRNKSSVA	WASTRES	QQYHRLPLS	1.42	3 of 3
KSSQSVLYESRNKDSVA	WFSTSES	QQYHRLPLS	3.97	1 of 3
KSSQSVLYYSRNKWSVA	WASTRES	QQYHRLTLS	2.53	3 of 3
KSSQSVLYESRNNRIVA	WASTRES	QQYHRLPLS	2.36	1 of 3
KSSQSVLEEMRNKSSVA	WASTRES	QQYHRLPLS	0.49	3 of 3
KSSQSVLYESRNKESVA	WASTRES	QQYHRGPRS	4.68	3 of 3
KSSQSVLSESRNKGSMA	WASTRES	QQYHRLPLS	4.66	2 of 3
KCSQGVLYESRNKKSVA	WASTRES	QQYHRLPLS	1.04	3 of 3
KSSQSVLYEVRNKKSVA	WASTRES	QQYHRLCLS	nd	0 of 3
KSSQSVLYESRNKASVA	WASTRES	QQYQRIPLS	2.37	3 of 3
KSSQSVLYESRNKWNVA	WASTRES	QQYHRLPFS	1.84	3 of 3
KSSQSVLYESRNKQSVA	WASPLES	QQYHRLPLS	3.05	1 of 3
KSSQSRLYESRNKWSVA	WASTRES	QQYHRLELS	2.42	2 of 3
LSSQSVLYESRNKVSVA	WASTRES	QQYHTLPLS	3.98	1 of 3
KSSQSVLYESRNKYSVA	EASSRES	QQYHRLPLS	nd	0 of 3
KSSQSVLIESRYKFSVA	WASTRES	QQYHRLPLS	4.43	3 of 3
KSSQSVLYESRNKVSVA	TASTQES	QQYHRLPLS	3.69	1 of 3
KYSQSVLYESRNKWSVA	WASTDES	QQYHRLPLS	3.91	1 of 3
KSSQSVLYESRNFISVA	WWSTRES	QQYHRLPLS	2.87	1 of 3
GSSQSVLYESYNKYSVA	WASTRES	QQYHRLPLS	4.84	3 of 3
KSSQSVLYESRNKASVW	WASTRRS	QQYHRLPLS	3.71	2 of 3
KSSQSVLYESRNKCSVR	WGSTRES	QQYHRLPLS	nd	0 of 3
KSSQSLLYESRPKLSVA	WASTRES	QQYHRLPLS	3.00	3 of 3

For reference, 6 entries of the list once more:

CDR-L1	CDR-L2	CDR-L3	log10 Kd (nM), mean	replicates with signal
KSSQSVLYESRNKHSVA	WASTRES	QQYHRLPLS	1.43	3 of 3
KSSQSVLYESRNKASVA	WASTRES	QQWHRLPLS	3.45	1 of 3
KSSQSVLYKSRNKASVA	WASTRES	QQYHRLPHS	2.42	3 of 3
KSSQSVLYESRNFISVA	WWSTRES	QQYHRLPLS	2.87	1 of 3
KSSQSVLYESRNKDSRA	WASTRES	QQYHRLPTS	4.05	1 of 3
KSSQSVLYESRNKDSVA	WASTRES	QQYHRLHLS	3.39	3 of 3

Values reported by Engelhart et al. 2022, doi:10.1038/s41597-022-01779-4 (FLAb copy).